Measured values reported in patent US20160024487.

Legend:
[1] = system: Lys(Dnp)-ATNATHNPRIVGG-Lys(Abz)
[2] = system: Lys(Dnp)-ATNATEVPRIVGG-Lys(Abz)
[3] = system: Lys(Dnp)-ATNATX4X3PRIVGG-Lys(Abz), X4 = E, X3 = H
[4] = system: Lys(Dnp)-ATNATYKPRIVGG-Lys(Abz)
[5] = system: Lys(Dnp)-ATNATGHPRIVGG-Lys(Abz)
[6] = system: Lys(Dnp)-ATNATX4X3PRIVGG-Lys(Abz), X4 = G, X3 = G
[7] = system: Lys(Dnp)-ATNATWGPRIVGG-Lys(Abz)
[8] = system: Lys(Dnp)-ATNATGVPRIVGG-Lys(Abz)
[9] = system: Lys(Dnp)-ATNATTFPRIVGG-Lys(Abz)
[10] = system: Lys(Dnp)-ATNATFTPRIVGG-Lys(Abz)
[11] = system: Lys(Dnp)-ATNATPFPRIVGG-Lys(Abz)
[12] = system: Lys(Dnp)-ATNATX4X3PRIVGG-Lys(Abz), X4 = T, X3 = F
[13] = system: Lys(Dnp)-ATNATHSPRIVGG-Lys(Abz)
[14] = system: Lys(Dnp)-ATNATHQPRIVGG-Lys(Abz)
[15] = system: Lys(Dnp)-ATNATX4X3PRIVGG-Lys(Abz), X4 = S, X3 = T
[16] = system: Lys(Dnp)-KATNATLDPRIVGG-Lys(Abz)
[17] = system: Lys(Dnp)-ATNATAQPRIVGG-Lys(Abz)
[18] = system: Lys(Dnp)-ATNATITPRIVGG-Lys(Abz)
[19] = system: Lys(Dnp)-ATNATQMPRIVGG-Lys(Abz)
[20] = system: Lys(Dnp)-ATNATDSPRIVGG-Lys(Abz)
[21] = system: Lys(Dnp)-ATNATNQPRIVGG-Lys(Abz)
[22] = system: Lys(Dnp)-ATNATNTPRIVGG-Lys(Abz)
[23] = system: Lys(Dnp)-ATNATAPPRIVGG-Lys(Abz)

Human plasma purified alpha-thrombin
FIIa kcat/KM [1]: 800 M⁻¹ s⁻¹ | Specificity Ratio (FIIa/FXa) [1]: 11 | FIIa kcat/KM [2]: 200 M⁻¹ s⁻¹ | Specificity Ratio (FIIa/FXa) [2]: 9

Human plasma purified α-thrombin
FIIa kcat/KM [3]: 690 M⁻¹ s⁻¹ | Specificity Ratio (FIIa/FXa) [3]: 89 | Functional Selectivity (Specificity*FIIa kcat/KM) [4]: 990000 | kcat/KM [5]: 1200 M⁻¹ s⁻¹ | FIIa kcat/KM [6]: 820 M⁻¹ s⁻¹ | Specificity Ratio (FIIa/FXa) [6]: 51 | FIIa kcat/KM [7]: 11000 M⁻¹ s⁻¹ | Functional Selectivity (Specificity*FIIa kcat/KM) [7]: 2.1e+06 | kcat/KM [7]: 11000 M⁻¹ s⁻¹ | kcat/KM [8]: 1200 M⁻¹ s⁻¹ | kcat/KM [9]: 640 M⁻¹ s⁻¹ | FIIa kcat/KM [10]: 27000 M⁻¹ s⁻¹ | Functional Selectivity (Specificity*FIIa kcat/KM) [10]: 1.5e+07 | kcat/KM [10]: 27000 M⁻¹ s⁻¹ | Functional Selectivity (Specificity*FIIa kcat/KM) [11]: 1.2e+06 | FIIa kcat/KM [12]: 640 M⁻¹ s⁻¹ | Specificity Ratio (FIIa/FXa) [12]: 29 | kcat/KM [13]: 1300 M⁻¹ s⁻¹ | kcat/KM [14]: 1800 M⁻¹ s⁻¹ | FIIa kcat/KM [15]: 1400 M⁻¹ s⁻¹ | Specificity Ratio (FIIa/FXa) [15]: 45 | kcat/KM [16]: 3900 M⁻¹ s⁻¹ | FIIa kcat/KM [17]: 12000 M⁻¹ s⁻¹ | Specificity Ratio (FIIa/FXa) [17]: 27 | kcat/KM [17]: 12000 M⁻¹ s⁻¹ | FIIa kcat/KM [18]: 32000 M⁻¹ s⁻¹ | Functional Selectivity (Specificity*FIIa kcat/KM) [18]: 1.2e+06 | kcat/KM [18]: 32000 M⁻¹ s⁻¹ | kcat/KM [19]: 8100 M⁻¹ s⁻¹ | FIIa kcat/KM [20]: 15 M⁻¹ s⁻¹ | Functional Selectivity (Specificity*FIIa kcat/KM) [20]: 49 | Specificity Ratio (FIIa/FXa) [20]: 3 | kcat/KM [20]: 15 M⁻¹ s⁻¹ | kcat/KM [21]: 740 M⁻¹ s⁻¹ | kcat/KM [22]: 870 M⁻¹ s⁻¹ | kcat/KM [23]: 1500 M⁻¹ s⁻¹
